This test addresses T1, Sodium/glucose cotransporter 2 (Homo sapiens, UniProt P31639).
T1 sequence (P31639 whole entry): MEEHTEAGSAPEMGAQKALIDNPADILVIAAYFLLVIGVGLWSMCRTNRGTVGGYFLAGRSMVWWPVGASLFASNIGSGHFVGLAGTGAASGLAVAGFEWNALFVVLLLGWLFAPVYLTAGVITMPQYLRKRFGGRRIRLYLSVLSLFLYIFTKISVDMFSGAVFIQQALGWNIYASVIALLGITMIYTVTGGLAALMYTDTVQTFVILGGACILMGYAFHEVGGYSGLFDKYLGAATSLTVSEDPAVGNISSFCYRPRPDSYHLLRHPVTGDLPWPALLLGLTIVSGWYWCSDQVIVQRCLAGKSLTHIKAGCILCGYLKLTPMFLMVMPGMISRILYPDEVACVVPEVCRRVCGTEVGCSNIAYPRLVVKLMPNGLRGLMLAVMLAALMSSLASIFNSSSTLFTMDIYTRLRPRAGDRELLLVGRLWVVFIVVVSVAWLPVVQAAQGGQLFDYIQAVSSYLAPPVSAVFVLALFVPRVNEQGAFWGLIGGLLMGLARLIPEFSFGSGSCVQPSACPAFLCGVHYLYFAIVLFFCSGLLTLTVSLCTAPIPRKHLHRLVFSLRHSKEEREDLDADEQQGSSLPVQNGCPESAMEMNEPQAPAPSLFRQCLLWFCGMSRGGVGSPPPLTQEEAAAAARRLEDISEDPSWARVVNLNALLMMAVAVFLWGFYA
Description: Inhibition of human recombinant SGLT2 expressed in CHO cells by liquid scintillation counting. It is filed as cell-based. In short, it runs like this:
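hSGLT2 cloned from human kidney cDNA; stable clones selected by G418 resistance. Preincubated 10 min at 37 °C in sodium-free choline buffer pH 7.4. Then 2 h at 37 °C in Na⁺ uptake buffer with 1 mM unlabeled AMG plus ¹⁴C-AMG and inhibitor or DMSO. Washed, radioactivity counted; IC50 by nonlinear regression.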

Structures are written as SMILES.

Consider `OC[C@H]1O[C@H](c2cccc(Cc3nnc(-c4ccccc4)s3)c2)[C@H](O)[C@@H](O)[C@@H]1O`, for which the concentration for half-maximal inhibition (IC50) is 1420 nM. To `OC[C@H]1O[C@H](c2cccc(Cc3nnc(-c4cccnc4)s3)c2)[C@H](O)[C@@H](O)[C@@H]1O` belongs 1230 nM.

Values taken from ChEMBL document CHEMBL1157636, “Novel C-aryl glucoside SGLT2 inhibitors as potential antidiabetic agents: 1,3,4-Thiadiazolylmethylphenyl glucoside congeners” (Bioorg Med Chem, 2010).
